Data reported in EP3771713A1 (priority 2019, dated 2021).

Sequences of proteins named here, by UniProt entry; tags and fusion partners are left off.
UniProt P21554, whole entry, looked up: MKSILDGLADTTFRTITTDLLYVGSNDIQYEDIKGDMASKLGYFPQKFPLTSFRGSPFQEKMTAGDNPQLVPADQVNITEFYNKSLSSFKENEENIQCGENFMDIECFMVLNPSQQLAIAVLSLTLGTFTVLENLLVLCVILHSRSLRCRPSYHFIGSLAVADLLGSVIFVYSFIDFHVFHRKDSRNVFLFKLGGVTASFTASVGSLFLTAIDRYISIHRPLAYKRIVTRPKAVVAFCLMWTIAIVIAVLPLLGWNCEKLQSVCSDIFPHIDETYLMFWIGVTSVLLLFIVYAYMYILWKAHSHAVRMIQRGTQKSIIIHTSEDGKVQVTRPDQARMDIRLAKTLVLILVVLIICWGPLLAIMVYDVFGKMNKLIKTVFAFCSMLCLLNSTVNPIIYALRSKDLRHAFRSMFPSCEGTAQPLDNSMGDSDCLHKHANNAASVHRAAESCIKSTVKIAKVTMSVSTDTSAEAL
UniProt P34972, whole entry, looked up: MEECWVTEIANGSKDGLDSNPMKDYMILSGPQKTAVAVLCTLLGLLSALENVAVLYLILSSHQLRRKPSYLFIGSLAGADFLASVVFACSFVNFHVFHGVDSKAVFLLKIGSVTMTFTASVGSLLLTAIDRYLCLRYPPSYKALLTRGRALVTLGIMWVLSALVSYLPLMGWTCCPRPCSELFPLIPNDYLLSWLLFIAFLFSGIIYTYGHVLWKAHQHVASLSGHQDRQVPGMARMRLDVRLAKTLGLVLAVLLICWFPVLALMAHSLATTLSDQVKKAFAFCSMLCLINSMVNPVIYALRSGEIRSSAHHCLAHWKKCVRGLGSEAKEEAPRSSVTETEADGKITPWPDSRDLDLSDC

Tests used:
hCB1R = hCB1R (Homo sapiens, UniProt P21554); test: Radioligand binding ([^3H]CP 55,940) at hCB1R, membranes of CHO cells; conditions: 10 µM of the compound
[1] = tested on: murine microglial cell line N9; test: Microglia activation: LPS-activated N9 cells, M1/M2 markers (Griess reaction, western blot); format: cell-based; conditions: 100 ng/mL LPS, 1-5 µM compound, 24 h
hCB2R = hCB2R (Homo sapiens, UniProt P34972); conditions: U266 cells, 50 µM, 2 h, compared to the vehicle

Compound: CCOc1ccc(Cc2nc3cc(C(=O)N(CC)CC)ccc3n2CCC(C)C)cc1
- [^3H]CP 55,940 displ. @10 µM hCB1R (hCB1R): 24%
- NO release / nitrite accumulation [1]: reduced
- IL1β release ([1]; M1 marker): significantly decrease
- iNOS expression ([1]; M1 marker): significantly decrease
- TGFβ2 expression ([1]; M2 marker): not reduced
- TREM2 expression ([1]; M2 marker): not reduced
- MIF gene expression (hCB2R): reduced
- STAT-3 gene expression (hCB2R): reduced
